pKd: −log10 of the molar value.
Target: Lanosterol 14-alpha-demethylase (Trypanosoma brucei brucei (strain 927/4 GUTat10.1), UniProt Q385E8)
Assay: Inhibition Assay
Details: pH 6

Sequences of proteins named here, by UniProt entry; tags and fusion partners are left off.
UniProt Q385E8, whole entry: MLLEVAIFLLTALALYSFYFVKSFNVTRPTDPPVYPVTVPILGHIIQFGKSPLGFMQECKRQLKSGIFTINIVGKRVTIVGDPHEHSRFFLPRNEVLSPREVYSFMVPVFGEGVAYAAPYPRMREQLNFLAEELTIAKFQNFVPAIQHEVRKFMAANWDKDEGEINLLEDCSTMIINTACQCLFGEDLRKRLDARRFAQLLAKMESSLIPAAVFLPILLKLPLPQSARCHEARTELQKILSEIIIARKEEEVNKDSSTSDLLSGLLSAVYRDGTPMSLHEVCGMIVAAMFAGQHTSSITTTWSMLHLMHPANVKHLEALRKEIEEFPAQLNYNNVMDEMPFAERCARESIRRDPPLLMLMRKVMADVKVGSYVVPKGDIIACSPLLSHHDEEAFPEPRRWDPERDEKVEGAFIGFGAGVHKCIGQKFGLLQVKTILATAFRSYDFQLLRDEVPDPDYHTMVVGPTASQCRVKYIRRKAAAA

OC(Cn1cncn1)(Cn1cncn1)c1ccc(F)cc1F [Fungata]
pKd: 6.47

— BindingDB's records for doi:10.1016/j.chembiol.2007.10.011 (Vanderbilt University, 2007)
